The source made the active and inactive calls. The rule behind the calls is not given here.
How the values were obtained:
[1] = molecular target: Toll-like receptor 1/2 (Homo sapiens) (UniProt O60603+Q15399); test: Induction of human TLR2/TLR1 heterodimerization expressed in insect Hi5 cells by size exclusion chromatography
Procedure, shortened: (§1)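 Human TLR1 and TLR2 ectodomains were made in Hi5 insect cells, partially deglycosylated, and had the protein A tag cleaved by thrombin before purification. Protein at 1 μM (each alone, or both together) was incubated with 30 μM ligand in 25 mM HEPES pH 8.0, 150 mM NaCl, 10% DMSO for 4 h at room temperature. Dimer formation was then analysed by analytical gel filtration on Superdex 200.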

The chains behind the UniProt entries cited, without tags or fusion partners. Where a name states a change or a piece, a line headed by the entry shows the natural chain unless it says otherwise.
UniProt O60603, whole entry: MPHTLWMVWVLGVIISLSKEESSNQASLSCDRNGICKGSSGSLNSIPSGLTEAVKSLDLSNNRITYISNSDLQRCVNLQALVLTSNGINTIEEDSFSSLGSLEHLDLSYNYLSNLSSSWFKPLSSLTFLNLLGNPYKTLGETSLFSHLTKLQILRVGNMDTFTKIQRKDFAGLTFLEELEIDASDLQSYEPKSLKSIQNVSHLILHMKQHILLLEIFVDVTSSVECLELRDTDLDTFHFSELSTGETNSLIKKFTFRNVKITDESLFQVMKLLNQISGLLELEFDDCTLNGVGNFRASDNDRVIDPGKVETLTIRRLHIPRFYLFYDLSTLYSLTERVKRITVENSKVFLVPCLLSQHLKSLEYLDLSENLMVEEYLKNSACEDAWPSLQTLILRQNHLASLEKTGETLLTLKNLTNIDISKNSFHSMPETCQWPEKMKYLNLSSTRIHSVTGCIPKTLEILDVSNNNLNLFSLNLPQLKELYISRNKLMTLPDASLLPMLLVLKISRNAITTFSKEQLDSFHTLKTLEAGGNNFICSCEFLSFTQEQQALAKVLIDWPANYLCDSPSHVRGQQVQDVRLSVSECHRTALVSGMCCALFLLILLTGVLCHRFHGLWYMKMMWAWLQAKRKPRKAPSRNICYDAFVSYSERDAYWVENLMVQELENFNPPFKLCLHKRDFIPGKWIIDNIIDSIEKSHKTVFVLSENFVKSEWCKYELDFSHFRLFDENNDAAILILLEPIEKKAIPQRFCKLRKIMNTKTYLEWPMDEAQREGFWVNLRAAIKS
UniProt Q15399: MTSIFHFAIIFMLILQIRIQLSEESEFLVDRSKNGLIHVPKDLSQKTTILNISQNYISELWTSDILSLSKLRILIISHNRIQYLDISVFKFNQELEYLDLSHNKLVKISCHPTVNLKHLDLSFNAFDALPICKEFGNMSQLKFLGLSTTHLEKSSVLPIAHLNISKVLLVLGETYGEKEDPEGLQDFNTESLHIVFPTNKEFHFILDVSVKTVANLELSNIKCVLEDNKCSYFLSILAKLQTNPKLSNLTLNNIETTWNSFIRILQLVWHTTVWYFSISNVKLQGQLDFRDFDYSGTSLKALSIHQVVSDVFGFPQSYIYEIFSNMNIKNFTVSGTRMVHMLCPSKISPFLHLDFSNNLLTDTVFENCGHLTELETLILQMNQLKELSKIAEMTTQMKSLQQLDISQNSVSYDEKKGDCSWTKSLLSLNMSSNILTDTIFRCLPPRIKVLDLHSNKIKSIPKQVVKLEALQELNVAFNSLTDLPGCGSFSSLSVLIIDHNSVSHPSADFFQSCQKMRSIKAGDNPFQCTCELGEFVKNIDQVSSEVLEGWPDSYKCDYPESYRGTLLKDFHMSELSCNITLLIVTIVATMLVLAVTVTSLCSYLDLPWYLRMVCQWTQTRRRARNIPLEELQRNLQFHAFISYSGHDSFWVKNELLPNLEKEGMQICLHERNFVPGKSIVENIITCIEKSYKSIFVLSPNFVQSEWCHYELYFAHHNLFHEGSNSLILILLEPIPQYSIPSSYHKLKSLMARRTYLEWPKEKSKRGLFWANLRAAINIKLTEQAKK

[2] = molecular target: Toll-like receptor 2 (Homo sapiens) (UniProt O60603); test: Induction of human TLR2 homodimerization expressed in insect Hi5 cells by size exclusion chromatography; procedure, shortened: as §1

Activity [1]: Active | Activity [2]: Active
Structure (SMILES): O=C(N[C@H]1C[C@@H]1c1ccccc1)[C@@H]1CN(C(=O)c2ccc(C(=O)N3C[C@@H](C(=O)N[C@H]4C[C@@H]4c4ccccc4)[C@H](C(=O)N[C@H]4C[C@@H]4c4ccccc4)C3)cc2)C[C@H]1C(=O)N[C@H]1C[C@@H]1c1ccccc1

Source: ChEMBL document CHEMBL4392821, “Structural Basis of TLR2/TLR1 Activation by the Synthetic Agonist Diprovocim” (J Med Chem, 2019)
